# The list shows a part of the results, in another mix than the full data. The source made the active and inactive calls. Cut-off read from the data, not from the text of the source: active = inhibition above about 29%; inactive = the rest.
# The chains behind the UniProt entries cited, without tags or fusion partners.
# UniProt O95977, whole entry: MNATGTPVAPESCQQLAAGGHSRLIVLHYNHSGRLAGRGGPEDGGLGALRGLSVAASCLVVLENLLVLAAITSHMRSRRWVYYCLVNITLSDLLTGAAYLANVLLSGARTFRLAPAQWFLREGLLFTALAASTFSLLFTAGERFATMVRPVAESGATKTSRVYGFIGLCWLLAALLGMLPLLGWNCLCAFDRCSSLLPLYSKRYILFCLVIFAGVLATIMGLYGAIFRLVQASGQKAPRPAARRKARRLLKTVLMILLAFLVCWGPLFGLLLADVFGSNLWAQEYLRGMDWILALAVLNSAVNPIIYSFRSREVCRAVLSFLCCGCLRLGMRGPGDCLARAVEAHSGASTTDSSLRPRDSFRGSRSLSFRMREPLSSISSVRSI
# Target: Sphingosine 1-phosphate receptor 4 (Homo sapiens) (UniProt O95977)
# Assay: S1P4 receptor antagonists, primary screen, cell-based (AID 1510);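 note: 0% = wells stimulated with agonist and 100% = vehicle wells without agonist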
# Conditions: S1P4-expressing cells, antagonist mode, reporter read-out; at 4.98 µM; active compounds read high
row,Compound,inhibition
1,CN(C)c1ccc(C(=O)NCC2(N3CCCCC3)CCCCC2)cc1,inactive: -15.6%
2,CCN1CCC(Nc2cccc(F)c2)CC1,inactive: -3.11%
3,CCCOc1ccc(C)cc1CN(CCCl)CCCl,inactive: 2.57%
4,CCC(CO)(C(=O)OC1CN2CCC1CC2)c1ccccc1 (centres undefined),inactive: 1.17%
5,COc1cc(OC)cc(C(=O)NCC2(N3CCOCC3)CCCCC2)c1,inactive: -12.4%
6,CC(C)(C)OC(=O)N1CCC(Nc2ccccc2)CC1,inactive: -24.3%
7,CCOc1ncccc1C(=O)NCC1(N2CCOCC2)CCCCC1,inactive: 9.66%
8,O=C(OC1CN2CCC1CC2)C1c2ccccc2C=Cc2ccccc21 (centres undefined),inactive: 13.5%
9,N/C(=N\O)c1c(N)no[n+]1[O-],inactive: -1.16%
10,COc1ccc(C(=O)NCC2(N3CCOCC3)CCCCC2)cc1OC,inactive: 2.08%
11,c1ccc(CN2CCC(Nc3ccccc3)CC2)cc1,inactive: -9.68%
12,N#Cc1ccc(C(=O)NCC2(N3CCCCC3)CCCCC2)cc1,inactive: -5.32%
13,CN1CCN(CCOC(=O)C(O)(c2ccccc2)c2ccccc2)CC1,inactive: -11.5%
14,COc1ccc(NC2CCN(C(=O)OC(C)(C)C)CC2)cc1,inactive: -8.85%
15,O=C(NCC1(N2CCOCC2)CCCCC1)c1cc(=O)[nH]c2ccccc12,inactive: -1.85%
16,O=C(NCC1(N2CCCCC2)CCCCC1)c1cccc([N+](=O)[O-])c1,inactive: 3.29%
17,N#CC1(Nc2ccccc2)CCN(CCc2ccccc2)CC1,inactive: 11.4%
18,CN1CCC(Nc2cccc(F)c2)CC1,inactive: -29.4%
19,CN(C)c1cccc(C(=O)NCC2(N3CCCCC3)CCCCC2)c1,inactive: -6.31%
20,COc1ccc(CN(CCCl)CCCl)cc1Cl,inactive: 5.02%
21,CC(C)c1ccc(NC2CCN(C(=O)OC(C)(C)C)CC2)cc1,inactive: -41.6%
22,CCOC(=O)N1CCC(Nc2ccc(OC)cc2)CC1,inactive: 0.89%
23,O=C(OC1CN2CCC1CC2)C1c2ccccc2Oc2ccccc21 (centres undefined),inactive: -21%
24,N#CC1(Nc2ccccc2)CCN(Cc2ccccc2)CC1,inactive: 7.18%
25,O=C(NCC1(N2CCOCC2)CCCCC1)c1cc2ccccc2o1,inactive: 0.18%
26,COc1ccc(C(=O)NCC2(N3CCCCC3)CCCCC2)c(OC)c1OC,inactive: -15.4%
27,Cc1ccc(OCC(C)C)c(CN(CCCl)CCCl)c1,inactive: 3.28%
28,COc1ccc(NC2CCN(CCc3ccccc3)CC2)c(OC)c1,inactive: -5.73%
29,CCOc1ccc(C)cc1CN(CCCl)CCCl,inactive: 8.82%

# — PubChem BioAssay AID1510 (The Scripps Research Institute Molecular Screening Center, 2009)
